# Reference: PMC8869358, “High-Throughput Chemical Screening and Structure-Based Models to Predict hERG Inhibition” (Biology, 2022)
# Amino acid sequences for entries named in this document (tags omitted). A change or cut given only in a name is not applied to a line headed by its entry.
# UniProt Q12809: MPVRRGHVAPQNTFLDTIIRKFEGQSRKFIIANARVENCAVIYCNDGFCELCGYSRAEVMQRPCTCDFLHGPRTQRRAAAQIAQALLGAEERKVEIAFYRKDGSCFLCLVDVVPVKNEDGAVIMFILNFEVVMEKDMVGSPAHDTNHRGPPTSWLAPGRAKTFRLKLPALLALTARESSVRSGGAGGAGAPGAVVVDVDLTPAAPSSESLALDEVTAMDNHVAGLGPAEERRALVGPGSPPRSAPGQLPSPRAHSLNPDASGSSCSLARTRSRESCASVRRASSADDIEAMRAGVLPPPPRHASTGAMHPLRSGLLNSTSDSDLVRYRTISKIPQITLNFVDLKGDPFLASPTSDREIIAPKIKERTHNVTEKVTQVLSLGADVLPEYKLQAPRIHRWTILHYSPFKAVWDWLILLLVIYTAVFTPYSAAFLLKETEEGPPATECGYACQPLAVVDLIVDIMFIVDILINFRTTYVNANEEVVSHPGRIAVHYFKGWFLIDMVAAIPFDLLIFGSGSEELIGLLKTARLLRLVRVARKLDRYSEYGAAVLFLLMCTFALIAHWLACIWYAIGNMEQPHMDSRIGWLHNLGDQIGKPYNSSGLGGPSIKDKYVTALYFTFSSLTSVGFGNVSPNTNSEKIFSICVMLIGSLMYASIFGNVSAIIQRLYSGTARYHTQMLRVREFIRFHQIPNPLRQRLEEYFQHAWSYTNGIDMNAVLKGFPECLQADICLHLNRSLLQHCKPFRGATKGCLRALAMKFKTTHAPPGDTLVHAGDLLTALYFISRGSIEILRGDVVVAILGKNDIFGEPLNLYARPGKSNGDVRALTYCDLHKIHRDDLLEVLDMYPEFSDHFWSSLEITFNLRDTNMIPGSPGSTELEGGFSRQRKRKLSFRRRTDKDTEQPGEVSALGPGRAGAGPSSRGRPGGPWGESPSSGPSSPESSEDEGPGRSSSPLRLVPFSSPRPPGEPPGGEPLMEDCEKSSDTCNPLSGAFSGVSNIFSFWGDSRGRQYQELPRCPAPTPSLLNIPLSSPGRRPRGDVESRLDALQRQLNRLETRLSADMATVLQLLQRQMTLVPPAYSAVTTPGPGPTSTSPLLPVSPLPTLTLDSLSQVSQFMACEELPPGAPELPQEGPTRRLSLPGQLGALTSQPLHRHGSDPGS
# Columns and labels:
# hERG [1] = target: T1, hERG (Homo sapiens, UniProt Q12809); test: Tox21 qHTS FluxOR thallium flux assay in hERG-U2OS cells
# hERG [2] = target: T1, hERG; test: cell-based; details: (-LOG10(IC50), µM)
Structure (SMILES),"IC50 (hERG [1]; 15 concentrations, three runs) [nM]",activity outcome for hERG inhibition in the assay (hERG [1]; result in words),IC50 (hERG [2]) [µM]
CC(C)COCC(CN(Cc1ccccc1)c1ccccc1)N1CCCC1 (stereo not drawn) [Bepridil],550,demonstrated activity,
Cn1cc(C2=C(c3cn(C4CCN(Cc5ccccn5)CC4)c4ccccc34)C(=O)NC2=O)c2ccccc21 [Enzastaurin],,,1.51
